Assay results as given in patent US11661421B2, “Indolizine compounds, preparation method and use thereof” (HAIHE BIOPHARMA CO., LTD., priority 2018, dated 2023).
pIC50: −log10 of the molar value.

Amino acid sequences for entries named in this document (tags omitted).
UniProt Q15910, whole entry Y641F: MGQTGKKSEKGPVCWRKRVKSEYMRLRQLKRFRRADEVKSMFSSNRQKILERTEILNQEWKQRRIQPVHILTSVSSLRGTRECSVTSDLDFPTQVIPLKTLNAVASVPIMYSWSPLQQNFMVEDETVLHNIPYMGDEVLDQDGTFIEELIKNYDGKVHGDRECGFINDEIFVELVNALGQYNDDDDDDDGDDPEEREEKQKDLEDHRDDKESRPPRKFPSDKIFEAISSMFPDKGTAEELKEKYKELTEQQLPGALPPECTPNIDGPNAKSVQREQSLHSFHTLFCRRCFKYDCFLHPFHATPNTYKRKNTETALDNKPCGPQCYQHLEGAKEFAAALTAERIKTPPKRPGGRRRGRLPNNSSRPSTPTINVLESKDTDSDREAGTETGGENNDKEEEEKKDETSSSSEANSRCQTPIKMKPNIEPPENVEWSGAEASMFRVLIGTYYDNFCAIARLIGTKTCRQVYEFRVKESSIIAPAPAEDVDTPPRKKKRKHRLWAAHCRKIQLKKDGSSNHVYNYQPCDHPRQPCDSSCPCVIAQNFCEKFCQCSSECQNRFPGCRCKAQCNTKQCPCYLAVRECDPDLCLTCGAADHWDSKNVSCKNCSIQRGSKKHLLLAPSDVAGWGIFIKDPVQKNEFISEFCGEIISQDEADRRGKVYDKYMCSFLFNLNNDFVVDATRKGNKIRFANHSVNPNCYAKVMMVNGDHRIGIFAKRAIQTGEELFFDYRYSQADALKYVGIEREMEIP

Biological target: T1, PRC2 complex (EZH2 Y641F/EED/SUZ12/RbAp48/AEBP2) histone methyltransferase (Homo sapiens, UniProt Q15910, Y641F)
T1 construct: purchased Cisbio
Experiment: PRC2 complex (EZH2 Y641F) activity assay, HTRF
Type: biochemical
Conditions: H3(1-50) K27me1 substrate, SAM, 4 h at room temperature, read-out: IC50 (EZH2_Y641F)
Source text: 1. PRC2 Complex (Ezh2y641f) Activity Assay of the Compounds:
Test Method: Homogeneous Time-Resolved Fluorescence (HTRF)
Materials: PRC2 complex (EZH2 Y641F/EED/SUZ12/RbAp48/AEBP2) histone methyltransferase used in the test was purchased from Cisbio; substrate H3(1-50) K27me1 was a product of GL Biochem; methyl donor S-(5′-Adenosyl)-L-methionine chloride dihydrochloride (SAM) was purchased from Sigma-aldrich; Eu-labeled H3K27me3, Streptavidin-XL665 and the buffer used in the test were purchased from Cisbio.
Experiment method: PRC2 complex (EZH2 Y641F/EED/SUZ12/RbAp48/AEBP2), H3(1-50)me1 substrate, methyl donor SAM and the test compound were added to each well to reach a total of 10 μL reaction system and reacted in dark at room temperature for 4h. 5 μL of Eu-labeled H3K27 Me3 antibody and 5 μL of Streptavidin-XL665 were added to each well, mixed uniformly, and incubated at room temperature for 1 h. The fluorescence values at 620 nm and 665 nm were measured with a multi-label microplate analysis system (PerkinElmer Envision), and the HTRF signal ratio (665 nm/620 nm) was calculated for each well. The IC50 values of the compounds were calculated using SoftMax Pro 5.4.1 software.

- pIC50: 8.86
Structure (SMILES): C=C(c1c(C)c(C(=O)NCc2c(OC)cc(C)[nH]c2=O)cc2c(-c3ccnc(N(C)C)c3)ccn12)N1CCOCC1 [compound 2, 1-(2-(dimethylamino)pyridin-4-yl)-N-((4-methoxy-6-methyl-2-oxo-1,2-dihydropyridin-3-yl)methyl)-6-methyl-5-(1-morpholinylvinyl)indolizine-7-formamide]
